Source: the NIST ThermoML archive (doi:10.1021/je400821q)
± gives the expanded uncertainty stated by the source.

Experiment: osmotic coefficient (dimensionless); mn = molality of the nth substance listed, in mol/kg
Settings: 308.15 K, Liquid, Osmomat K-7000

## CCC[N+](CCC)(CCC)CCC.[Br-] [tetrapropylammonium bromide] + O
m1 = 0.00795
  osmotic coefficient: 0.989 ± 0.0011
m1 = 0.01468
  osmotic coefficient: 0.9667 ± 0.0015
m1 = 0.03035
  osmotic coefficient: 0.9379 ± 0.0024
m1 = 0.03901
  osmotic coefficient: 0.9265 ± 0.0028
m1 = 0.04468
  osmotic coefficient: 0.9201 ± 0.0031
m1 = 0.0568
  osmotic coefficient: 0.9063 ± 0.0036
m1 = 0.07479
  osmotic coefficient: 0.8896 ± 0.0043
m1 = 0.09397
  osmotic coefficient: 0.8732 ± 0.0049
m1 = 0.1371
  osmotic coefficient: 0.8524 ± 0.0057
m1 = 0.1722
  osmotic coefficient: 0.8415 ± 0.0061
m1 = 0.215
  osmotic coefficient: 0.8321 ± 0.0065
m1 = 0.2531
  osmotic coefficient: 0.8261 ± 0.0067
m1 = 0.2969
  osmotic coefficient: 0.8201 ± 0.007
